These are literature values, as cited in patent US20250161255A1, “NEW THERAPY AND PREVENTION FOR SUPPRESSING AGING-RELATED DISORDERS INCLUDING SARCOPENIA” (priority 2022, published 2025).

Amino acid sequences for entries named in this document (tags omitted). Residues count along the entry.
UniProt Q13705, 19-512: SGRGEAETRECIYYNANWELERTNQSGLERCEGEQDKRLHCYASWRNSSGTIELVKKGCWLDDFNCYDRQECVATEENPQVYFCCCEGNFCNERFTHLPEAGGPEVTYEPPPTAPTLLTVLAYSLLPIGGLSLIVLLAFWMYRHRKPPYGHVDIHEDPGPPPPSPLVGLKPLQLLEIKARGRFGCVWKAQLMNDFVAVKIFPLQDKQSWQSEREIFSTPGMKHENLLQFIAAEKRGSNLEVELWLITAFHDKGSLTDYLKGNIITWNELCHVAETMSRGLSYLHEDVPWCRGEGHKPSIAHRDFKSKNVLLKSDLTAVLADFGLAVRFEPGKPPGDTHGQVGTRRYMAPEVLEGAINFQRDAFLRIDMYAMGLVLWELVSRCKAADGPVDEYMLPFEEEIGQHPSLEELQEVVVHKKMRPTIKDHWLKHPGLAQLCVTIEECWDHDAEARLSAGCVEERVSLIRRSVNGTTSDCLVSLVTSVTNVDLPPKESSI

This data set has as its target activin receptor ACVR2B (Homo sapiens, UniProt Q13705). The settings on record: phase II completed 2017; development discontinued 2018; cited from earlier work.

Take “Bimagrumab: monoclonal antibody targeting the activin receptor ACVR2B”: the “sarcopenia symptoms, including gait speed and grip strength” value was “did not dramatically improve sarcopenia symptoms”.
